Values of other authors in patent publication US9745567B2, “Compositions and methods for treating multiple sclerosis” (REVALESIO CORPORATION, priority 2008, dated 2017).

Tested on: multiple sclerosis
Settings: human, in vivo

B1: interferon-β: naturally occurring protein produced by fibroblasts; drug for MS (protein, UniProt P01574 22-187, looked up)
Interferon beta: MSYNLLGFLQRSSNFQCQKLLWQLNGRLEYCLKDRMNFDIPEEIKQLQQFQKEDAALTIYEMLQNIFAIFRQDSSSTGWNETIVENLLANVYHQINHLKTVLEEKLEKEDFTRGKLMSSLHLKRYYGRILHYLKAKEYSHCAWTIVRVEILRNFYFINRLTGYLRN
effectiveness in reducing the rate of MS episodes: 18-38%
